This is an account of results in article PMC7614726 (ACS chemical neuroscience, 2020).

Amino acid sequences for entries named in this document (tags omitted). A change or cut given only in a name is not applied to a line headed by its entry.
UniProt P56524: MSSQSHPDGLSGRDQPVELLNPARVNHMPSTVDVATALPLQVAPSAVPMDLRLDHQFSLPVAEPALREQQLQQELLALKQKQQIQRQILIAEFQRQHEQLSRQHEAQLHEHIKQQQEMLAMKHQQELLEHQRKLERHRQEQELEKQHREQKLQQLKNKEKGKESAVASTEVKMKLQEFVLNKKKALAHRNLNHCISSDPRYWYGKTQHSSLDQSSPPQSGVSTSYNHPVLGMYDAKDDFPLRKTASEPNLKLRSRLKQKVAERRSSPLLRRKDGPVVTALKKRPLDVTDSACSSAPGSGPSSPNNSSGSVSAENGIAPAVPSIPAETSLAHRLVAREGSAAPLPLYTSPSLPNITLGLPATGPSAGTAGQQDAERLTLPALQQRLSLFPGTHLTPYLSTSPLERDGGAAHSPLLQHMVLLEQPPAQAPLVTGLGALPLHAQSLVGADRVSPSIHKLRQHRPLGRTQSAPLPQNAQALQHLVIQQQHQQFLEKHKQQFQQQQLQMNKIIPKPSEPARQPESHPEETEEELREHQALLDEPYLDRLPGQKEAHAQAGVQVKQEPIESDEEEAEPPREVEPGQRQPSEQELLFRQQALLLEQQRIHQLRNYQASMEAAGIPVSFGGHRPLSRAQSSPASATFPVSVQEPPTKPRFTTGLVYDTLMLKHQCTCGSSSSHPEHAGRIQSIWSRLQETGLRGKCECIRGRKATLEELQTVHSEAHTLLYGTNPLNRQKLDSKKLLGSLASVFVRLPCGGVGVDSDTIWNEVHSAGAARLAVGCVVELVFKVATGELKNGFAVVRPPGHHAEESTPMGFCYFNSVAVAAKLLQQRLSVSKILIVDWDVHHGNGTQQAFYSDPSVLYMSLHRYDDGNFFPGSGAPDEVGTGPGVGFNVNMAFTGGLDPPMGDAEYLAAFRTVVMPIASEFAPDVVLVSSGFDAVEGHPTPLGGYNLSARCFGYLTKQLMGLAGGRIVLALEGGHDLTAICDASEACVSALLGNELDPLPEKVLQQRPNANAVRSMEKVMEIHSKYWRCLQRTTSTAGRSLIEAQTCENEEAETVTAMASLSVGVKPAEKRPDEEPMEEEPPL

This experiment deals with HDAC4 (Homo sapiens, UniProt P56524). Kind of experiment: biochemical.

For orientation: IC50 means the concentration that gives 50% inhibition. Read a high IC50 as weaker potency in that assay. Consider `CN1CCc2c(c3ccccc3n2Cc2ccc(C(=O)NO)cc2)C1` [Tubastatin A], for which the midpoint of inhibition, the IC50, lay at 6.2 µM.
